Assay [1] in a line: NCI Yeast Anticancer Drug Screen. Data for the rad50 strain (AID 155).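 Also: 0% = growth of vehicle-only cultures of the same strain.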 Conditions: S. cerevisiae rad50 strain growth inhibition; at 50.0 µM; active compounds read high.
The nature of assay [2]: NCI Yeast Anticancer Drug Screen. Data for the mec2-1 strain (AID 157). As to conditions: S. cerevisiae mec2-1 strain, at 50.0 µM, active compounds read high.
Assay [3] in a line: NCI Yeast Anticancer Drug Screen. Data for the sgs1 mgt1 strain (AID 161).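 Also: 0% = growth of cultures given vehicle only.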 As to conditions: S. cerevisiae sgs1 mgt1 strain, at 50.0 µM, active compounds read high.
A short description of assay [4]: NCI Yeast Anticancer Drug Screen. Data for the cln2 rad14 strain (AID 165).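 Also: 0% = growth equal to vehicle treated cultures.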 Conditions: S. cerevisiae cln2 rad14 strain, at 50.0 µM, active compounds read high.
A short description of assay [5]: NCI Yeast Anticancer Drug Screen. Data for the bub3 strain (AID 167). As to conditions: S. cerevisiae bub3 mutant strain, at 50.0 µM, active compounds read high.
Assay [6] can be described thus: NCI Yeast Anticancer Drug Screen. Data for the mlh1 rad18 strain (AID 175). As to conditions: S. cerevisiae mlh1 rad18 strain growth inhibition; at 50.0 µM; active compounds read high.

Only a part is listed here, and it is no random draw. Some structures show a salt or complex split into parts, the way the source records it. Calls of active or inactive are those of the source. Rule as the data show it: active = growth inhibition above about 70%; inactive = the rest.

As to `CCN(CC)CCOC(=O)C(O)(c1ccccc1)c1c(C)c(C)c(C)c(C)c1C` (centres undefined), the growth inhibition in assay [1] is inactive: 17.3%; in assay [2], inactive: -7.3%; in assay [3], inactive: 10.8%; in assay [4] it was inactive: -1.5%; in assay [5], inactive: -1.55%; in assay [6] it was inactive: 11.8%.

As to `CCOP(=O)(CC)OCC`, the growth inhibition in assay [1] is inactive: 22.2%; in assay [2], inactive: -17.3%; in assay [3], inactive: 17.2%; in assay [4], inactive: -10.1%; in assay [5], inactive: -3.15%; in assay [6] it was inactive: 12.7%.

Take `CCCCNCCNCCCC.O=[N+]([O-])c1cc([N+](=O)[O-])c(O)c([N+](=O)[O-])c1`: the growth inhibition in assay [1] is inactive: 6.2%; in assay [2], inactive: 4.65%; in assay [3] it was inactive: 7.4%; in assay [4], inactive: -8.3%; in assay [5], inactive: 4.25%; in assay [6] it was inactive: 46.9%.

Consider `O=[N+]([O-])N1CCN([N+](=O)[O-])CC1`, for which the growth inhibition in assay [1] was inactive: -24.4%; in assay [2], inactive: 1.35%; in assay [3], inactive: -9.75%; in assay [4], inactive: -27.4%; in assay [5] it was inactive: -14.8%; in assay [6] it was inactive: -14.7%.

With `Cc1cc(C(=O)O)c(CN)c(=O)[nH]1.O=[N+]([O-])c1cc([N+](=O)[O-])c(O)c([N+](=O)[O-])c1`, the growth inhibition in assay [1] was inactive: 32.6%; in assay [2] it was inactive: -9.9%; in assay [3], inactive: 29.5%; in assay [4], inactive: -36.4%; in assay [5] it was inactive: -0.05%; in assay [6] it was inactive: 2.7%.

As for `CCN(CC)CCOC(=O)C(O)(c1ccccc1)c1ccc(C)c(C)c1C` (centres undefined), the growth inhibition in assay [1] is inactive: -1.1%; in assay [2] it was inactive: 4.35%; in assay [3] it was inactive: -5.55%; in assay [4], inactive: -21.6%; in assay [5] it was inactive: -5%; in assay [6] it was inactive: 5.6%.

For `Cc1cccc2ccccc12.O=[N+]([O-])c1cc([N+](=O)[O-])c(O)c([N+](=O)[O-])c1`, the growth inhibition in assay [1] was inactive: 16.1%; in assay [2], inactive: 4.65%; in assay [3], inactive: 1.8%; in assay [4], inactive: -1.15%; in assay [5], inactive: 1.95%; in assay [6] it was inactive: -5.05%.

As to `O=[N+]([O-])c1cc([N+](=O)[O-])c(O)c([N+](=O)[O-])c1.c1ccc2c(c1)ccc1ccccc12`, the growth inhibition is inactive: 9.15% in assay [1]; inactive: -4.2% in assay [2]; inactive: 23.1% in assay [3]; inactive: -4.4% in assay [4]; inactive: -8% in assay [5]; inactive: 14.8% in assay [6].

With `CCOC(=O)COCN(CN(CN(COCC(=O)OCC)[N+](=O)[O-])[N+](=O)[O-])[N+](=O)[O-]`, the growth inhibition in assay [1] was inactive: -1.8%; in assay [2], inactive: 3.25%; in assay [3] it was inactive: -7%; in assay [4], inactive: -26.4%; in assay [5], inactive: -0.75%; in assay [6], inactive: 20.2%.

For `COP(C)(=O)c1ccc([N+](C)(C)C)cc1.O=[N+]([O-])c1cc([N+](=O)[O-])c([O-])c([N+](=O)[O-])c1`, the growth inhibition in assay [1] was inactive: 9.25%; in assay [2], inactive: 6.7%; in assay [3], inactive: 11.8%; in assay [4], inactive: 8.2%; in assay [5], inactive: -1.7%; in assay [6], inactive: -10.1%.

As for `CCN(CC)CCOC(=O)C(O)(c1ccccc1)c1cc(C)cc(C)c1` (centres undefined), the growth inhibition is inactive: -2.9% in assay [1]; inactive: 8.5% in assay [2]; inactive: -5.8% in assay [3]; inactive: -14.2% in assay [4]; inactive: 3.75% in assay [5]; inactive: 1.15% in assay [6].

Regarding `O=[N+]([O-])c1cc([N+](=O)[O-])c(O)c([N+](=O)[O-])c1.OCCc1ccccn1`, the growth inhibition was inactive: 16.8% in assay [1]; inactive: 7.5% in assay [2]; inactive: 3.1% in assay [3]; inactive: 2.85% in assay [4]; inactive: 17.9% in assay [5]; inactive: 3.95% in assay [6].

Regarding `O=C(O)C(O)(c1ccccc1)c1ccccc1.OC1CN2CCC1CC2`, the growth inhibition was inactive: -15.9% in assay [1]; inactive: -4.3% in assay [2]; inactive: -2.8% in assay [3]; inactive: -1.85% in assay [4]; inactive: -4.7% in assay [5]; inactive: -6.55% in assay [6].

As to `O=[N+]([O-])c1cc([N+](=O)[O-])c(O)c([N+](=O)[O-])c1.c1ccc(C2CNCCN2)cc1`, the growth inhibition in assay [1] is inactive: 32.4%; in assay [2] it was inactive: 23.1%; in assay [3], inactive: 33.5%; in assay [4] it was inactive: 11.8%; in assay [5], inactive: 1.6%; in assay [6], inactive: 35%.

For the compound `COP(C)(=O)OC.COP(C)(=O)OC.COP(C)(=O)OC.COP(C)(=O)OC.COP(C)(=O)OC.COP(C)(=O)OC.[Fe+3].[O-][Cl+3]([O-])([O-])O`, the growth inhibition was inactive: -0.4% in assay [1]; inactive: 22.4% in assay [2]; inactive: 13.6% in assay [3]; inactive: -9.75% in assay [4]; inactive: -8.8% in assay [5]; inactive: 23.8% in assay [6].

For the compound `Cc1cnc(N)[nH]1.O=[N+]([O-])c1cc([N+](=O)[O-])c(O)c([N+](=O)[O-])c1`, the growth inhibition in assay [1] was inactive: -9.45%; in assay [2] it was inactive: 8.45%; in assay [3] it was inactive: 0.95%; in assay [4], inactive: -10.2%; in assay [5] it was inactive: -12.6%; in assay [6] it was inactive: -1.6%.

As for `C[N+](C)([O-])C1CCCCCCCC1.O=[N+]([O-])c1cc([N+](=O)[O-])c(O)c([N+](=O)[O-])c1`, the growth inhibition is inactive: 37.1% in assay [1]; inactive: 12.1% in assay [2]; inactive: 31.9% in assay [3]; inactive: 18.1% in assay [4]; inactive: -3.6% in assay [5]; inactive: 11.3% in assay [6].

Turning to `O=[N+]([O-])C(F)(CN(COCN(CC(F)([N+](=O)[O-])[N+](=O)[O-])CC(F)([N+](=O)[O-])[N+](=O)[O-])CC(F)([N+](=O)[O-])[N+](=O)[O-])[N+](=O)[O-]`, the growth inhibition in assay [1] was active: 86.5%; in assay [2], active: 92.4%; in assay [3], active: 89.6%; in assay [4], active: 90.4%; in assay [5], active: 89.3%; in assay [6], active: 89.7%.

Regarding `CC(C)OP(C)(O)=S.CC(N)c1ccccc1` (centres undefined), the growth inhibition in assay [1] is inactive: -8.65%; in assay [2], inactive: -19.1%; in assay [3], inactive: -6.35%; in assay [4], inactive: -1.25%; in assay [5], inactive: -16.7%; in assay [6], inactive: -13.4%.

For the origin of these results see PubChem BioAssay (NCI).
